# Reference: patent US12491172B2, “Treatment of diabetes” (priority 2019, dated 2025)
# Key:
# [1] = test system: HIF-1α target genes; test: Gene expression of HIF-1α target genes in isolated islets (RT-qPCR); assay type: cell-based, mouse; details: islets treated with GKA50, with PX-478, 20 hours
# [2] = test system: white adipose tissue of db/db mice; test: Gene expression analysis of visceral and subcutaneous white adipose tissue in db/db mice; details: 30-40 mg per kg PX-478 IP
# [3] = test system: db/db mice; test: Diabetes progression in db/db mice already hyperglycemic at 5 weeks of age
# [4] = test system: isolated pancreatic islets; test: Measurements of cytoplasmic free Ca2+-concentration in islets; assay type: cell-based, mouse
# [5] = test system: pancreatic islets of db/db mice; test: Immunocytochemistry of pancreas sections of db/db mice (Ki67, insulin, glucagon, somatostatin)
# [6] = test system: db/db mice; test: Diabetes progression in db/db mice treated from 6 weeks of age
# [7] = test system: STZ-treated C57BL/6J mice; test: Diabetes progression in streptozotocin-treated C57BL/6J mice
# [8] = test system: db/db mice; test: Glucose and insulin tolerance test in db/db mice
# [9] = test system: isolated pancreatic islets; test: Static batch incubation (insulin secretion) of isolated islets; assay type: cell-based, mouse
# [10] = test system: isolated pancreatic islets; test: Cell viability of islets using propidium iodide; details: islets treated 20 hours, with or without GKA50 co-treatment
# [11] = db/db mice after 6 hours of fasting
compound,measurement,setting,value
N[C@@H](Cc1ccc([N+]([O-])(CCCl)CCCl)cc1)C(=O)O,"expression of Glut1, Igfbp3, Hk2 and Pgk1",[1],significantly decreased
same,gene expression in visceral and subcutaneous WAT,[2],no major change in gene expression
same,body weight,[3]; 40 mg per kg,without significantly affecting body weight
same,blood glucose,[3]; 40 mg per kg twice a week,decreased blood glucose in a time-dependent manner
same,plasma insulin level relative to PBS injected group,[3]; end of the study,2.5 fold
same,speed of [Ca2+]i response to glucose,[4]; 20 μM GKA50 with or without 50 μM PX-478,not changed
same,basal [Ca2+]i oscillations,"[4]; 3 mM glucose, after 20 hours 20 μM GKA50 with or without 50 μM PX-478 and 2 hours fasting",prevented basal [Ca^2+]i oscillations
same,raise of [Ca2+]i in response to glucose,[4]; PX-478 in the presence of the GKA activator,decreased the raise of [Ca^2+]i in response to glucose
same,number of glucagon and somatostatin-producing cells,[5]; db/db mice,reduced the number of glucagon and somatostatin-producing cells
same,rate of proliferating beta cells (Ki67 staining),[5]; db/db mice treated twice a week for 7 weeks versus untreated,higher rate of proliferating beta cells
same,ratio of beta/alpha and beta/delta cells,[5]; db/db mice treated versus non-treated,higher than in non-treated mice
same,"area of α, β or δ cells compared to total endocrine area","[5]; db/db mice, gastric/duodenal and splenic part of pancreas",increased p cell area with a concomitant reduction in a and 6 cell area
same,non-fasting plasma insulin,[6]; IP twice a week for 7 weeks,remained hyperinsulinemic until the end of the experiment
same,non-fasting blood glucose,"[6]; IP twice a week for 7 weeks, 30-40 mg per kg",no increase of glycemia was observed
same,body weight,"[6]; IP twice a week for 7 weeks, 30-40 mg per kg, versus non-treated",without presenting any statistically significantly difference between the two groups of animals
same,time after first administration at which suppression of non-fasting blood glucose was seen,"[6]; twice a week, 30 mg per kg",5 days
same,blood glucose concentration,[7]; 40-45 mg per kg,significantly decreased blood glucose concentration
same,body weight,[7]; inhibitor twice a week,did not influence the body weight
same,fasting blood glucose,[8]; [11],low blood glucose
same,fasting plasma insulin levels relative to non-treated db/db mice,[8]; [11],2 fold
same,peripheric insulin sensitivity (ITT),"[8]; db/db mice, 6 hours fasted, 0.5 U insulin per kg IP",without improvement of peripheric insulin sensitivity
same,tolerance to glucose (GTT),"[8]; db/db mice, 6 hours fasted, 1.5 g glucose per kg IP",improved tolerance to glucose
same,basal insulin secretion,"[9]; 3.3 mM glucose, after 20 hours treatment and 2 hours fasting",significantly decreased basal insulin secretion levels to near control values
same,insulin release at high glucose concentration,"[9]; 16.7 mM glucose, after 20 hours treatment",did not have any deleterious effect on insulin secretion at high glucose concentration
same,secretory index,[9]; GKA50-treated islets in absence (1.2) or presence (3.4) of the HIF-1α inhibitor,3.4 fold
same,insulin content,[9]; islets treated with GKA50 with or without PX-478,no impact on insulin content
same,cell viability (propidium iodide),[10],does not decrease cell viability
